# Molecular target: Man-WYDLF (L37)
# Test: inhibition of binding to horseradish peroxidase
substance,measurement,value
concanavalin A (from UniProt P02866),IC50,4 µM
